From patent US10167293B2, “[8-(phenylsulfonyl)-3,8-diazabicyclo[3.2.1]oct-3-yl](1H-1,2,3-triazol-4-yl)methanones” (BAYER PHARMA AKTIENGESELLSCHAFT, priority 2016, dated 2019)

Protein sequences, listed by entry. Tags and fused reporters are not part of them.
UniProt P42330, whole entry: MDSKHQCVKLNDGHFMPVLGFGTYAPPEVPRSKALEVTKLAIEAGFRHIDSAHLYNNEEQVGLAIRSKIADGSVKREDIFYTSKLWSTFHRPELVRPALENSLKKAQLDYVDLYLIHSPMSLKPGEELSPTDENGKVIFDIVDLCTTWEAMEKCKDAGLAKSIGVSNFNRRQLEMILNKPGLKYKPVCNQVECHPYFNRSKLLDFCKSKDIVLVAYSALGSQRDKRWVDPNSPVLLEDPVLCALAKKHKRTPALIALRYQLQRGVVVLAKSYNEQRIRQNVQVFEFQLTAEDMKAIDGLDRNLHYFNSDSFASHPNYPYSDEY

Molecular target: recombinant human AKR1C3 (Homo sapiens (Human), UniProt P42330)
Assay: AKR1C3-inhibitory activity assay (Coumberone to Coumberol fluorescence)
Conditions: read-out: IC50 human AKR1C3; recombinant human AKR1C3, 15 min pre-incubation, 10 μM NADPH, 0.3 μM Coumberone
Procedure: The AKR1C3-inhibitory activity of the substances of the present invention was measured in the AKR1C3 assay described in the paragraphs below.
Essentially, the enzyme activity is measured by quantification of the generation of Coumberol from Coumberone (Halim et al. J. AM. CHEM. SOC. 2008, 130:14123-14128 and Yee et al. Proc. Natl. Acad. Sci. USA 2006, 103:13304-13309). In this test, the increase of the highly fluorescent Coumberol by NADPH—(nicotinamide adenine dinucleotide phosphate)-dependent reduction of the non-fluorescent Coumberone by AKR1C3 was determined.
The enzyme used was recombinant human AKR1C3 (Aldo-keto reductase family 1 member C3; GenBank Accession No. NM_003739). […]
For the assay, 50 nl of a 100-fold concentrated solution of the test substance in DMSO were pipetted into a black low-volume 384-well microtiter plate (Greiner Bio-One, Frickenhausen, Germany), 2.5 μl of a solution of AKR1C3 in assay buffer [50 mM potassium phosphate buffer pH 7, 1 mM DTT, 0.0022% (w/v) Pluronic F-127, 0.01% BSA (w/v) and protease inhibitor cocktail (Complete, EDTA-free Protease Inhibitor Cocktail from Roche)] were added and the mixture was incubated for 15 min to allow pre-binding of the substances to the enzyme prior to the enzyme reaction. […] The intensity of the fluorescence was used as a measure of the amount of Coumberole formed and thus of the enzyme activity of AKR1C3. […]

Cc1ccc(S(=O)(=O)N2CCN(C(=O)c3ccno3)CC2)cc1
IC50: 1810 nM
